This is an account of results in US20250144132A1, “POLYSACCHARIDE COMPOUND WITH A DEFINED MOLECULAR STRUCTURE THAT CAN ELIMINATE THE TOXIC SIDE EFFECTS OF CHEMOTHERAPY DRUGS” (priority 2023, published 2025).

Structures are written as SMILES. Where two headings read alike, the source gives them in different places.

The series relates to 4T1 breast tumor-bearing mice. Type of series: in vivo, BALB/c mice. As for the experimental part:
A suspension of 4T1 breast cancer cells was injected subcutaneously into the left shoulder back of 60 healthy female BALB/c mice to create solid tumor models. When the mean tumor volume reached approximately 190 mm^3, the mice were randomized into groups based on tumor volume, and were administered the respective drugs or drug solvents via oral gavage or intraperitoneal injection over 18 consecutive days. Longest and shortest diameters of tumors were measured every three days to calculate tumor volume, and mouse weights were recorded every three days. At the end of the experiment, tumors, spleens, and thymuses were harvested and weighed to calculate tumor, spleen, and thymus indices.
Based on previous experimental results, Ganoderma lucidum polysaccharide GLP-1 was administered at a low dose of 50 mg/kg and a high dose of 150 mg/kg as shown in Table 27.
Relative tumor growth inhibition rate (%)=(1−TRTV/CRTV)×100%. Where TRTV is the relative tumor volume in the experimental group, and CRTV is the relative tumor volume in the model control group. […]
Spleen and thymus organ coefficients: After the last dose, spleen, thymus, and tumor weights are measured, and organ coefficients are calculated. […]
Statistical analyses were performed using SPSS 17.0, with the significance level set at P≤0.05. Measurement data were expressed as mean±standard deviation (˜±s). […]

Regarding `N.N.[Cl][Pt][Cl]` [Cisplatin, cisplatin], the Mortality rate runs as follows: (4T1 breast tumor-bearing mice, cisplatin 4 mg/kg i.p.) 12.5%; (18 days of dosing, cisplatin 4 mg/kg, GLP-1 low-dose 50 mg/kg) 12.5%.
